The values that follow come from patent US12281084B2, “Acetyl-CoA synthetase 2 (ACSS2) inhibitors and methods using same” (The Wistar Institute, priority 2019, dated 2025).

In this experiment the test system is BT474 tumors. The experiment in a line: BT474 tumor xenograft growth in NSG mice. The note with it: 40 mg/kg once daily IP dosing (FIG. 15). The procedure:
For BT474 mouse xenograft studies 5-6 week old female NSG […] were anesthetized and one 17β-estradiol 60 day release pellet (Innovative Research of America Cat. No. SE-121) was injected subcutaneously via 10 gauge precision trochar into the lateral side of the neck between the ear and shoulder. 24 hours later 10^5 BT474 luciferase positive cells in 100 μl PBS:matrigel (growth factor reduced) were injected subcutaneously into the hind limb. For A7C11 and Brpkp110 xenografts, 5×10^5 cells in 100 μl PBS:Matrigel (growth factor reduced Corning Cat. No. 356231) were subcutaneously injected into the hindlimb of 5-6 week old female NSG mice […]. Following tumor establishment in all groups, mice were randomized and treated intraperitoneally (IP) daily with vehicle (10% DMSO, 10% absolute ethanol, 20% solutol, 60% water containing 0.5% Tween20) or 100 mg/kg VY-3-135 as indicated in the figure legend. Tumors were measured thrice weekly via caliper measurement and tumor volume calculated as (L×W^2)/2 (where L is the longer of the 2 measurements). […]
Mice bearing luciferase positive tumors were injected IP with 150 mg/kg sterile filtered D-luciferin potassium salt (Gold Bio Cat. No. LUCK-1G). […] Images were analyzed using Living Image Software (Perkin Elmer). […]

Turning to `CCn1c(C(O)(c2ccc(F)cc2)C(F)(F)F)nc2ccc(C(=O)Nc3cccc(S(C)(=O)=O)c3)cc21` (racemic), the BT474 tumor growth result is recorded as “causes a significant decrease in BT474 tumor growth”.
